scFv variants of Ab-14 (heavy chain) against a SARS-CoV-2 spike peptide

Binding partner: SARS-CoV-2 spike HR2 peptide, sequence PDVDLGDISGINAS.

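Variants in AAYL49 differ from the parent at up to three CDR positions; double and triple changes were sampled at random. The scFvs were displayed on barcoded MATa yeast, the peptide on MATalpha yeast. Binding brings cells together so that they mate, and sequencing counts the barcode pairs among the diploids. A regression on co-assayed BCL2-family reference pairs converts the normalised counts of each replicate to an apparent Kd. The assay was run in three technical replicates.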

Ab-14 is the parent antibody, in scFv form: VH, then the linker GGGGSGGGGSGGGGS, then VL. The light chain is unchanged in all variants.
VH: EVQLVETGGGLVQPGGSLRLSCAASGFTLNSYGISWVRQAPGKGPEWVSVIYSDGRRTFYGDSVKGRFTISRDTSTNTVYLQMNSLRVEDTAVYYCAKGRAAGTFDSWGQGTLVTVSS
VL: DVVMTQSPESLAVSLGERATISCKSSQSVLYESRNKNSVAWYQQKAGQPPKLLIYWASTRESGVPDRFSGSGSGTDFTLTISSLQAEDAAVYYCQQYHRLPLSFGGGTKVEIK

Variants are written as CDR1, CDR2 and CDR3 of the heavy chain (limits as in the source). Parent: GFTLNSYGIS, VIYSDGRRTFYGDSVK, GRAAGTFDS.
All variants listed here change R56 of the VH, counted from its first residue.
Numbers give log10(Kd / nM), so 0 is 1 nM and 3 is 1 µM. Smaller is tighter.
A mean of the replicates is given; it leaves out those without a signal.
"nd" means that the variant was in the library but no mating with the target was seen in any replicate; the authors take this as a sign of poor binding, and no number exists.
Empty control strains, which show no peptide, gave a signal in 15% of pairings with library AAYL49; the median was 4.06 and 95% of these signals were weaker than 2.83. No background was subtracted. Also given: how often the same scFv was detected with the empty control strains.
Parent in this assay: reference entry 0.65, copy in this library 4.11 (one replicate of three).

With GFWLNSYGIS, VIYSDGWRTFYGDKVK, GRAAGTFDS the result was 2.31 (3 of 3 replicates; controls 2 of 9).
With GFTLNSYGIS, VIYSDGLRTFYGDSVK, GRAAGTFDS the result was 3.59 (3 of 3 replicates; controls 0 of 9).
With GFTLNYYGIS, HIYSDGFRTFYGDSVK, GRAAGTFDS the result was 4.30 (1 of 3 replicates; controls 3 of 9).
With GFNLNSYGIS, VIYSDGHRTFYGDSVK, GRGAGTFDS the result was 0.56 (3 of 3 replicates; controls 4 of 9).
With GFTLNSYGIS, VIYSDGFRTFMGDSVK, GLAAGTFDS the result was 4.42 (1 of 3 replicates; controls 3 of 9).
With GFTLNSYGIS, VIYSDGERTFMGDSVK, ARAAGTFDS the result was 5.91 (1 of 3 replicates; controls 3 of 9).
With GFTENSYGIS, VIYSDGYRTFYGDSVI, GRAAGTFDS the result was nd (0 of 3 replicates; controls 0 of 9).
With GFTLNSYGIS, VIYSDGERTCYGDSVK, GRAAGTFDL the result was 2.80 (3 of 3 replicates; controls 3 of 9).
With GFTLNYYGIW, VIYSDGSRTFYGDSVK, GRAAGTFDS the result was nd (0 of 3 replicates; controls 0 of 9).
With GFTRNSYGIS, CIYSDGTRTFYGDSVK, GRAAGTFDS the result was nd (0 of 3 replicates; controls 0 of 9).
With GFTLNSYGCS, VIYSDGIRTFYGDSVK, GRAAPTFDS the result was 3.93 (2 of 3 replicates; controls 1 of 9).
With GFTCNSYGIS, VIYSDGGRTFYGDSVK, GRAAGTFDA the result was 4.82 (1 of 3 replicates; controls 1 of 9).
With GFTLNSYGIS, EIYSDGYRTFYGDSVK, GRAAGVFDS the result was nd (0 of 3 replicates; controls 1 of 9).
With GFTLNSYGPS, VIYSDGFRTFYGDSVD, GRAAGTFDS the result was 4.19 (1 of 3 replicates; controls 4 of 9).
With GFTLNSYGIS, VIHSDGFRTFYGDSVQ, GRAAGTFDS the result was nd (0 of 3 replicates; controls 1 of 9).
With GFTLNSYGIS, VIYDDGYRTFIGDSVK, GRAAGTFDS the result was nd (0 of 3 replicates; controls 1 of 9).
With WFTLNSYGIS, VIYSDGKRTFYGDMVK, GRAAGTFDS the result was nd (0 of 3 replicates; controls 0 of 9).
With GFTLNSYGYS, VIDSDGDRTFYGDSVK, GRAAGTFDS the result was nd (0 of 3 replicates; controls 0 of 9).
With GFTLNSYGIS, VIYSDGHRTFYGDSVK, GRAAGTFDS the result was 4.87 (1 of 3 replicates; controls 8 of 9).
With GFTLNSYKIS, VIYSDGERTFYGDSVK, GRAAGSFDS the result was nd (0 of 3 replicates; controls 1 of 9).
With GFTLNSYGDS, VIYSDGVRTFYGDSVK, GRAAGTFDE the result was 1.26 (3 of 3 replicates; controls 2 of 9).
With GFTLNSYGKS, VIYSDGYRTFQGDSVK, GRAAGTFDS the result was 4.87 (2 of 3 replicates; controls 1 of 9).
With FFTLNSYGIS, VIYSDGYRTFYGDSVK, GRAMGTFDS the result was 4.97 (1 of 3 replicates; controls 0 of 9).
With GFFLNSYGRS, VIYSDGGRTFYGDSVK, GRAAGTFDS the result was nd (0 of 3 replicates; controls 1 of 9).
With GFTLNSYGIS, VIYSDGHRTFRGDSVK, GRAAGTFDS the result was 4.96 (1 of 3 replicates; controls 0 of 9).
With GFTLNSYGIS, VIYSDGFRTFYGDSVK, GRAAGTFDS the result was 1.10 (3 of 3 replicates; controls 0 of 9).
With GFTLNSHGIS, VIYRDGDRTFYGDSVK, GRAAGTFDS the result was 3.53 (1 of 3 replicates; controls 1 of 9).
With GFTLNSYGIS, VIYSDGSRTFYGDSVK, GIAAGTFDS the result was 4.41 (1 of 3 replicates; controls 1 of 9).
With GFTLNSYGIS, NIYSDGIRTFDGDSVK, GRAAGTFDS the result was 4.41 (1 of 3 replicates; controls 1 of 9).
With GISLNSYGIS, VIYSDGHRTFYGDSVK, GRAAGTFDS the result was 0.98 (3 of 3 replicates; controls 3 of 9).
With GFTLNYYGIS, VIYSDGPRTFYGDSVK, GLAAGTFDS the result was 5.42 (1 of 3 replicates; controls 2 of 9).
With GFTLNSYGIS, VIYSDGASTFYGDSVK, GRAAGTFDS the result was nd (0 of 3 replicates; controls 0 of 9).
With GFTLQSYGIS, VIYSDGPRNFYGDSVK, GRAAGTFDS the result was nd (0 of 3 replicates; controls 0 of 9).
With GFTLNSYGIS, IIYSDGWETFYGDSVK, GRAAGTFDS the result was nd (0 of 3 replicates; controls 4 of 9).
With GFTLNSYGIS, VIYMDGSRTFYGDSTK, GRAAGTFDS the result was nd (0 of 3 replicates; controls 0 of 9).
With GFTLNSYGIS, VDYSDGYRTFDGDSVK, GRAAGTFDS the result was nd (0 of 3 replicates; controls 0 of 9).
With GWTLNSYGIS, VIYSDGTRTFYGDSVK, GRAAGTFDS the result was 4.28 (1 of 3 replicates; controls 0 of 9).
With GFTLNSYGIS, VIYSDGLRTFYGDSVK, GRAARQFDS the result was 1.43 (3 of 3 replicates; controls 3 of 9).
With GFTLNSYGIS, VIYSFGKRTFYGDSVK, GRAAGSFDS the result was 4.16 (1 of 3 replicates; controls 5 of 9).
With GFTLNSYGIE, VIYSDGLRTFYVDSVK, GRAAGTFDS the result was 4.94 (1 of 3 replicates; controls 4 of 9).

From the list, the first 4 with no signal in any replicate:

GFTENSYGIS, VIYSDGYRTFYGDSVI, GRAAGTFDS: nd (0 of 3 replicates; controls 0 of 9).
GFTLNYYGIW, VIYSDGSRTFYGDSVK, GRAAGTFDS: nd (0 of 3 replicates; controls 0 of 9).
GFTRNSYGIS, CIYSDGTRTFYGDSVK, GRAAGTFDS: nd (0 of 3 replicates; controls 0 of 9).
GFTLNSYGIS, EIYSDGYRTFYGDSVK, GRAAGVFDS: nd (0 of 3 replicates; controls 1 of 9).

Data: MIT Lincoln Laboratory AlphaSeq set, Engelhart et al. 2022, doi:10.1038/s41597-022-01779-4, as distributed in FLAb.